Reference: patent US11407721B2, “CIS-morpholinone and other compounds as MDM2 inhibitors for the treatment of cancer” (AMGEN INC., priority 2013, dated 2022)

The chains behind the UniProt entries cited, without tags or fusion partners. Residues count along the entry.
UniProt Q00987, 1-188 limits assumed: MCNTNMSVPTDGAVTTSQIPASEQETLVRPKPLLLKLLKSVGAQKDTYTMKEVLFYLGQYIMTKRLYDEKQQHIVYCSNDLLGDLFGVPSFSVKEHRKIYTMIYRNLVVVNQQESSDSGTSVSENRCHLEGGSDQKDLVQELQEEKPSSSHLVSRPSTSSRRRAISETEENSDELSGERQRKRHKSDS

Molecular target: interaction between HDM2 and p53 (GST-hMDM2 (1-188) / biotinylated-p53 (1-83)) (Homo sapiens (Human), UniProt Q00987)
Assay: HTRF2 Assay (improved HTRF assay)
Assay type: binding
Conditions: read-out: HTRF2 IC50; 0.2 nM GST-hMDM2 (1-188), 0.5 nM biotinylated-p53 (1-83), 100 mM KF

SMILES: CC(=O)NNC(=O)C[C@H]1O[C@H](c2cccc(Cl)c2)[C@H](c2ccc(Cl)cc2)N(CC2CC2)C1=O (relative stereo)
- IC50: 6060 nM

SMILES: CCCCN1C(=O)[C@@H](CC(=O)O)O[C@H](c2cccc(Cl)c2)[C@@H]1c1ccc(Cl)cc1 (relative stereo)
- IC50: 2350 nM

SMILES: CCC[C@@H](c1nnn[nH]1)N1C(=O)[C@@H](Cc2ccc(C#N)cc2)O[C@H](c2ccc(Cl)cc2)[C@@H]1c1ccc(Cl)cc1 (relative stereo)
- IC50: 415 nM

SMILES: CCC[C@@H](c1nnn[nH]1)N1C(=O)[C@@H](Cc2ccc(F)cc2)O[C@H](c2ccc(Cl)cc2)[C@@H]1c1ccc(Cl)cc1 (relative stereo)
- IC50: 1330 nM

SMILES: CCC[C@H](C(=O)NCC(=O)O)N1C(=O)CO[C@@H](c2ccc(Cl)cc2)[C@H]1c1ccc(Cl)cc1 (relative stereo)
- IC50: 5050 nM

SMILES: CCC[C@H](C(=O)NCC(=O)O)N1C(=O)[C@H](Cc2ccc(C#N)cc2)O[C@@H](c2ccc(Cl)cc2)[C@H]1c1ccc(Cl)cc1 (relative stereo)
- IC50: 630 nM

SMILES: CCC[C@H](C(=O)NCCC(=O)O)N1C(=O)[C@@H](Cc2ccc(C#N)cc2)O[C@H](c2ccc(Cl)cc2)[C@@H]1c1ccc(Cl)cc1 (relative stereo)
- IC50: 2660 nM

SMILES: CCC[C@H](C(=O)NCCC(=O)O)N1C(=O)[C@H](Cc2ccc(C#N)cc2)O[C@@H](c2ccc(Cl)cc2)[C@H]1c1ccc(Cl)cc1 (relative stereo)
- IC50: 428 nM

SMILES: CCC[C@H](C(=O)O)N1C(=O)CO[C@@H](c2ccc(Cl)cc2)[C@H]1c1ccc(Br)cc1 (relative stereo)
- IC50: 2690 nM

SMILES: CCC[C@H](C(=O)O)N1C(=O)[C@@H](Cc2ccc(F)cc2)O[C@H](c2cccc(Cl)c2)[C@@H]1c1ccc(Cl)cc1 (relative stereo)
- IC50: 12700 nM

SMILES: CCC[C@H](C(=O)O)N1C(=O)[C@H](CC(=O)N2CCOCC2)O[C@@H](c2cccc(Cl)c2)[C@H]1c1ccc(Cl)cc1 (relative stereo)
- IC50: 1600 nM

SMILES: CCC[C@H](C(=O)O)N1C(=O)[C@H](Cc2ccc(C#N)cc2)O[C@@H](c2ccc(Cl)cc2)[C@H]1c1ccc(Br)cc1 (relative stereo)
- IC50: 358 nM

SMILES: CCC[C@H](C(=O)O)N1C(=O)[C@H](Cc2ccc(F)cc2)O[C@@H](c2ccc(Cl)cc2)[C@H]1c1ccc(Br)cc1 (relative stereo)
- IC50: 707 nM

SMILES: CCC[C@H](C(=O)O)N1C(=O)[C@H](Cc2ccc(F)cc2)O[C@@H](c2ccc(Cl)cc2Cl)[C@H]1c1ccc(Cl)cc1 (relative stereo)
- IC50: 2160 nM

SMILES: CCC[C@H](C(N)=O)N1C(=O)CO[C@@H](c2cccc(Cl)c2)[C@H]1c1ccc(Cl)cc1 (relative stereo)
- IC50: 2780 nM

SMILES: CCC[C@H](C(N)=O)N1C(=O)[C@H](Cc2ccc(F)cc2)O[C@@H](c2cccc(Cl)c2)[C@H]1c1ccc(Cl)cc1 (relative stereo)
- IC50: 2500 nM

SMILES: CN1C(=O)[C@@H](Cc2ccccc2C#N)O[C@H](c2ccc(Cl)cc2)[C@@H]1c1ccc(Cl)cc1 (relative stereo)
- IC50: 1770 nM

SMILES: N#CCC[C@H]1O[C@H](c2cccc(Cl)c2)[C@H](c2ccc(Cl)cc2)N(CC2CC2)C1=O (relative stereo)
- IC50: 6300 nM

SMILES: N#Cc1cccc([C@H]2OCC(=O)N(CC3CC3)[C@H]2c2ccc(Cl)cc2)c1 (relative stereo)
- IC50: 19000 nM

SMILES: NC(=O)OCC[C@H]1O[C@H](c2cccc(Cl)c2)[C@H](c2ccc(Cl)cc2)N(CC2CC2)C1=O (relative stereo)
- IC50: 2250 nM

SMILES: O=C(C[C@H]1O[C@H](c2cccc(Cl)c2)[C@H](c2ccc(Cl)cc2)N(CC2CC2)C1=O)N1CCOCC1 (relative stereo)
- IC50: 2920 nM

SMILES: O=C(C[C@H]1O[C@H](c2cccc(Cl)c2)[C@H](c2ccc(Cl)cc2)N(CC2CC2)C1=O)NCCN1CCOCC1 (relative stereo)
- IC50: 2050 nM

SMILES: O=C(O)[C@@H](c1ccc(Cl)cc1)N1C(=O)CO[C@@H](c2ccc(Cl)cc2)[C@H]1c1ccc(Cl)cc1 (relative stereo)
- IC50: 16800 nM

SMILES: O=C(O)[C@@H](c1cccc(Cl)c1)N1C(=O)[C@H](Cc2ccc(F)cc2)O[C@@H](c2ccc(Cl)cc2)[C@H]1c1ccc(Cl)cc1 (relative stereo)
- IC50: 2250 nM
